We go through one compound from ChEMBL document CHEMBL5034004, “Discovery of M3 Antagonist-PDE4 Inhibitor Dual Pharmacology Molecules for the Treatment of Chronic Obstructive Pulmonary Disease” (J Med Chem, 2021).

Amino acid sequences for entries named in this document (tags omitted).
UniProt P20309, whole entry: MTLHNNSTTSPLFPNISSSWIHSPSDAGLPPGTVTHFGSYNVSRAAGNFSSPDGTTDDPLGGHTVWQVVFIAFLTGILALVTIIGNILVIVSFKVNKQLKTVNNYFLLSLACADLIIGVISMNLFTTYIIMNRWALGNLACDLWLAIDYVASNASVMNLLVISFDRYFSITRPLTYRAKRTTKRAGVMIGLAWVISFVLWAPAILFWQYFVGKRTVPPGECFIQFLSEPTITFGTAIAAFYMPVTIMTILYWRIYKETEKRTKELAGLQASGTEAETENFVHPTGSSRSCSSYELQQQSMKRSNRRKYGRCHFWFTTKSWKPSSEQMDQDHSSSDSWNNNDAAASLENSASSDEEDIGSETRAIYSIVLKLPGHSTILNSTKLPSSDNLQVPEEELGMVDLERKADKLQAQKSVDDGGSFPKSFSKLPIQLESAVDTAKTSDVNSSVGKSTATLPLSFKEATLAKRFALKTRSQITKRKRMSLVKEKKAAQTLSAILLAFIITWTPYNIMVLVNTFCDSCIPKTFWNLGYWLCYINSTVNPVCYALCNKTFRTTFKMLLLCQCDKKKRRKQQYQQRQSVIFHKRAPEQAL
UniProt P08172, whole entry: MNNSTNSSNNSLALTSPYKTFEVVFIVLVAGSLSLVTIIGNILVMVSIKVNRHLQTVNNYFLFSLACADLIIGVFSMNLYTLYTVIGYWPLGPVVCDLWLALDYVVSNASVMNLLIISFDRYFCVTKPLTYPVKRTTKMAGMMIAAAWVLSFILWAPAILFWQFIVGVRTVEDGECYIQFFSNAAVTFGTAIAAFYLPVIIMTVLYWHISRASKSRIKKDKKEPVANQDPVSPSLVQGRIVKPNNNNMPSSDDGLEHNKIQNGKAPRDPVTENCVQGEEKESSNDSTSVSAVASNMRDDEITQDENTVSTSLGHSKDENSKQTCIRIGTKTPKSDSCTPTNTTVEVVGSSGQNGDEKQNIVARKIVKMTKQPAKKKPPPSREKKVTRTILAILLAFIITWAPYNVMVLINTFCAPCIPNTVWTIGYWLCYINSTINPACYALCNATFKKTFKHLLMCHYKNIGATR

In assay [1] the target is Muscarinic acetylcholine receptor M3 (Homo sapiens, UniProt P20309). Kind of assay: Displacement of [3H]-N-methyl Scopolamine Chloride from human M3 receptor membranes incubated for 2 hrs by scintillation counting analysis. It counts as cell membranes, Cell membrane.
Assay [2] addresses Muscarinic acetylcholine receptor M2 (Homo sapiens, UniProt P08172). Kind of assay: Displacement of [3H]-N-methyl Scopolamine Chloride from human M2 receptor membranes incubated for 2 hrs by scintillation counting analysis. In kind it is cell membranes, Cell membrane.

Regarding `CC(C)[N+]1(C)[C@@H]2CC[C@H]1C[C@@H](OC(=O)C(CO)c1ccccc1)C2` (some centres not stated) [IPRATROPIUM], the inhibitory constant (Ki) in assay [1] and in assay [2] was 0.794 nM throughout.
